Reference: ChEMBL document CHEMBL5385882, “Rational design and appraisal of selective Cdc2-Like kinase 1 (Clk1) inhibitors as novel autophagy inducers for the treatment of acute liver injury (ALI)” (Eur J Med Chem, 2023)

Target: Dual specificity tyrosine-phosphorylation-regulated kinase 1A (Homo sapiens, UniProt Q13627)
Assay: Inhibition of DYRK1A (unknown origin)

An IC50 of 40 nM was found for `CCN1/C(=C/C(C)=O)Sc2ccc(OC)cc21` in this work.
